Here are results for 14 molecules from patent publication US20260207704A1, “STAPLED PEPTIDES AND METHODS THEREOF” (priority 2022, published 2026).

The chains behind the UniProt entries cited, without tags or fusion partners.
UniProt P35222, whole entry: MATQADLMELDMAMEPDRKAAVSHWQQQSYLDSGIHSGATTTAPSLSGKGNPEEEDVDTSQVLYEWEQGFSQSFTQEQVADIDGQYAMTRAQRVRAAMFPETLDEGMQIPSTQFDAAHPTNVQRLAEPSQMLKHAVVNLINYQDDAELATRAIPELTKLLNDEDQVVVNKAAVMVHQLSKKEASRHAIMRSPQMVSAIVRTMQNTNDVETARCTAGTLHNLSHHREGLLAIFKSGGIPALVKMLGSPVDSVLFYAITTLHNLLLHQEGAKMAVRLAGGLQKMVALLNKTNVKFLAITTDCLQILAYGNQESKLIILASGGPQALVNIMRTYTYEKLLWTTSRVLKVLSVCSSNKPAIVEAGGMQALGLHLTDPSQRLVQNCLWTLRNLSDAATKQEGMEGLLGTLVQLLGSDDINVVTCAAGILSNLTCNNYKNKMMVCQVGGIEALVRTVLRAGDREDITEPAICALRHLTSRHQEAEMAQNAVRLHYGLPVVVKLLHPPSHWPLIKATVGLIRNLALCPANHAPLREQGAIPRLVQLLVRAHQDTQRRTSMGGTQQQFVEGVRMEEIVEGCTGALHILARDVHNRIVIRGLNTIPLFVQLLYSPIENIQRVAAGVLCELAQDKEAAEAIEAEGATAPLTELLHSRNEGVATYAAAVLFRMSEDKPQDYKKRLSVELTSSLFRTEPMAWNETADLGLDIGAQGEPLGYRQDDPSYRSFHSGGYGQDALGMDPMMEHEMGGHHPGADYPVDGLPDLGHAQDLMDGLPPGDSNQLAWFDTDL

The assay deals with beta-catenin (Homo sapiens, UniProt P35222). Kind of assay: fluorescence polarization binding to beta-catenin. Particulars: beta-Catenin FP IC50 (nM). (In general: Polarisation of emitted light reports the rotation of a fluorescent probe.)
Take `CC(=O)N1CCC[C@]12CCCCCCC13CCCCCCCCOC(=O)N4CC[C@@]5(C4)NC(=O)[C@H](CCCCNC(=O)CC[C@@H](C(=O)N[C@@H](C)C(N)=O)NC(=O)[C@H](Cc4csc6ccccc46)NC(=O)[C@H](Cc4ccccc4C(F)(F)F)NC5=O)NC(=O)[C@H](Cc4ccccc4)NC(=O)[C@H](C)NC(=O)[C@H](CCCCNC(=O)CC[C@H](NC(=O)[C@H](CC(=O)O)NC2=O)C(=O)N1)NC(=O)[C@H](Cc1cccc(C(=O)O)c1)NC(=O)[C@H](CC(=O)O)NC3=O` (relative stereo) [I-79, Ac-PL3-Asp-GlnR**3-B5-Asp-3COOHF-Lys**3-Ala-Phe-Lys*3-PyrS2-2F3MeF-BztA-GlnR*3-Ala-NH2]: the IC50 – broadly, the midpoint of a concentration-inhibition curve – lay in the range of 50 to 200 nM. As for `CC(=O)N1CCC[C@]12CC=CCCCC1(CCCC=CCCCOC(=O)N3CC[C@@]4(C3)NC(=O)[C@H](CCCCNC(=O)CC[C@@H](C(=O)N[C@@H](C)C(N)=O)NC(=O)[C@H](Cc3csc5ccccc35)NC(=O)[C@H](Cc3ccccc3C(F)(F)F)NC4=O)NC(=O)[C@H](Cc3ccccc3)NC(=O)[C@H](C)NC(=O)C(C)(C)NC(=O)[C@H](Cn3cc(CC(C)(C)C(=O)O)nn3)NC(=O)[C@H](CC(=O)O)NC1=O)NC(=O)[C@H](CC(C)(C)C)NC(=O)[C@H](CC(=O)O)NC2=O` (relative stereo) [I-195, Ac-PL3-Asp-Npg-B5-Asp-[CH2CMe2CO2H]TriAzDap-Aib-Ala-Phe-Lys*3-PyrS2-2F3MeF-BztA-GlnR*3-Ala-NH2], the figure is below 50 nM. Molecule `CC(=O)N1CCC[C@]12CC=CCCCC1(CCCC=CCCCOC(=O)N3CC[C@@]4(C3)NC(=O)[C@H](CCCCNC(=O)CC[C@@H](C(=O)N[C@@H](CCCN3CCOCC3)C(=O)N[C@H](C)CO)NC(=O)[C@H](Cc3csc5ccccc35)NC(=O)[C@H](Cc3ccccc3C(F)(F)F)NC4=O)NC(=O)[C@H](Cc3ccccc3)NC(=O)[C@H](C)NC(=O)C(C)(C)NC(=O)[C@H](Cc3cccc(C(=O)O)c3)NC(=O)[C@H](CC(=O)O)NC1=O)NC(=O)[C@H](CC(C)(C)C)NC(=O)[C@H](CC(=O)O)NC2=O` (relative stereo) [I-225, Ac-PL3-Asp-Npg-B5-Asp-3COOHF-Aib-Ala-Phe-Lys*3-PyrS2-2F3MeF-BztA-GlnR*3-MorphNva-dAlaol] returned an IC50 below 50 nM. On to `CC(=O)N1CCC[C@]12CC=CCCCC1(CCCC=CCCCOC(=O)N3CC[C@@]4(C3)NC(=O)[C@H](CCCCNC(=O)CC[C@@H](C(=O)N[C@@H](C)C(N)=O)NC(=O)[C@H](Cc3csc5ccccc35)NC(=O)[C@H](Cc3ccsc3)NC4=O)NC(=O)[C@H](Cc3ccccc3)NC(=O)[C@H](C)NC(=O)C(C)(C)NC(=O)[C@H](Cn3cc(CC(C)(C)C(=O)O)nn3)NC(=O)[C@H](CC(=O)O)NC1=O)NC(=O)[C@H](CC(C)(C)C)NC(=O)[C@H]([C@H](C)O)NC2=O` (relative stereo) [I-317, Ac-PL3-aThr-Npg-B5-Asp-[CH2CMe2CO2H]TriAzDap-Aib-Ala-Phe-Lys*3-PyrS2-3Thi-BztA-GlnR*3-Ala-NH2], for which the IC50 is above 1000 nM.

Molecule `CC(=O)N1CCC[C@]12CC=CCCCC1(CCCC=CCCCOC(=O)N3CC[C@@]4(C3)NC(=O)[C@H](CCCCNC(=O)CC[C@@H](C(=O)N[C@@H](C)C(N)=O)NC(=O)[C@H](Cc3csc5ccccc35)NC(=O)[C@H](Cc3ccsc3)NC4=O)NC(=O)[C@H](Cc3ccccc3)NC(=O)[C@H](C)NC(=O)[C@H](CCC(=O)N3CCOCC3)NC(=O)[C@H](Cn3cc(CC(C)(C)C(=O)O)nn3)NC(=O)[C@H](CC(=O)O)NC1=O)NC(=O)[C@H](CC(C)(C)C)NC(=O)[C@H]([C@H](C)O)NC2=O` (relative stereo) [I-321, Ac-PL3-aThr-Npg-B5-Asp-[CH2CMe2CO2H]TriAzDap-MorphGln-Ala-Phe-Lys*3-PyrS2-3Thi-BztA-GlnR*3-Ala-NH2] yielded an IC50 above 1000 nM. Take `CC(=O)N1CCC[C@]12CC=CCCCC1(CCCC=CCCCOC(=O)N3CC[C@@]4(C3)NC(=O)[C@H](CCCCNC(=O)CC[C@@H](C(=O)N[C@@H](CCCCNC(=O)CCOCCOCCOCCOCCOCCOCCOCCOCCNC(=O)CCCC[C@@H]3SC[C@@H]5NC(=O)N[C@@H]53)C(N)=O)NC(=O)[C@H](Cc3csc5ccccc35)NC(=O)[C@H](Cc3ccsc3)NC4=O)NC(=O)[C@H](Cc3ccccc3)NC(=O)[C@H](C)NC(=O)C(C)(C)NC(=O)[C@H](Cc3cccc(C(=O)O)c3)NC(=O)[C@H](CCC(=O)O)NC1=O)NC(=O)[C@H](CC(C)(C)C)NC(=O)[C@H](CCC(=O)O)NC2=O` (relative stereo) [I-518, Ac-PL3-Glu-Npg-B5-Glu-3COOHF-Aib-Ala-Phe-Lys*3-PyrS2-3Thi-BztA-GlnR*3-[BiotinPEG8]Lys-NH2]: the IC50 was above 1000 nM. Turning to `CC(=O)N1CCC[C@]12CC=CCCCC1(CCCC=CCCCOC(=O)N3CC[C@@]4(C3)NC(=O)[C@H](CCCCNC(=O)CC[C@@H](C(=O)N[C@@H](C)C(N)=O)NC(=O)[C@H](Cc3csc5ccccc35)NC(=O)[C@H](Cc3ccccc3C(N)=O)NC4=O)NC(=O)[C@H](Cc3ccccc3)NC(=O)[C@H](C)NC(=O)C(C)(C)NC(=O)[C@H](Cc3cccc(C(=O)O)c3)NC(=O)[C@H](CC(=O)O)NC1=O)NC(=O)[C@H](CC(C)(C)C)NC(=O)[C@H](CC(=O)O)NC2=O` (relative stereo) [I-542, Ac-PL3-Asp-Npg-B5-Asp-3COOHF-Aib-Ala-Phe-Lys*3-PyrS2-2cbmF-BztA-GlnR*3-Ala-NH2], the IC50 was below 50 nM. As for `CC(=O)N1CCC[C@]12CC=CCCCC1(CCCC=CCCCOC(=O)N3CC[C@@]4(C3)NC(=O)[C@H](CCCNC(=O)CCC[C@@H](C(=O)N[C@@H](C)C(N)=O)NC(=O)[C@H](Cc3csc5ccccc35)NC(=O)[C@H](Cc3ccsc3)NC4=O)NC(=O)[C@H](Cc3ccccc3)NC(=O)[C@H](C)NC(=O)C(C)(C)NC(=O)[C@H](Cc3cccc(C(=O)O)c3)NC(=O)[C@H](CC(=O)O)NC1=O)NC(=O)[C@H](CC(C)(C)C)NC(=O)[C@H](CC(=O)O)NC2=O` (relative stereo) [I-560, Ac-PL3-Asp-Npg-B5-Asp-3COOHF-Aib-Ala-Phe-Orn*3-PyrS2-3Thi-BztA-hGlnR*3-Ala-NH2], the figure is below 50 nM; as for `CC(=O)N1CCC[C@]12CC=CCCCC1(CCCC=CCCCOC(=O)N3CC[C@@]4(C3)NC(=O)[C@H](CC(=O)NCCC[C@@H](C(N)=O)NC(=O)[C@H](Cc3csc5ccccc35)NC(=O)[C@H](Cc3ccsc3)NC4=O)NC(=O)[C@H](Cc3ccccc3)NC(=O)[C@H](C)NC(=O)[C@H](C)NC(=O)[C@H](Cc3cccc(C(=O)O)c3)NC(=O)[C@H](CC(=O)O)NC1=O)NC(=O)[C@H](CC(C)(C)C)NC(=O)[C@H](CC(=O)O)NC2=O` (single isomer, unassigned) [I-40, Ac-PL3-Asp-Npg-B5-Asp-3COOHF-Ala-Ala-Phe-AsnR*3-PyrS2-3Thi-BztA-Orn*3-NH2], above 1000 nM. As for `CC(=O)N1CCC[C@]12CC=CCCCC1(CCCC=CCCCOC(=O)N3CC[C@@]4(C3)NC(=O)[C@H](CC(=O)NCCC[C@@H](C(N)=O)NC(=O)[C@H](Cc3csc5ccccc35)NC(=O)[C@H](Cc3ccsc3)NC4=O)NC(=O)[C@H](Cc3ccccc3)NC(=O)[C@H](C)NC(=O)[C@H](C)NC(=O)[C@H](Cc3cccc(C(=O)O)c3)NC(=O)[C@H](CC(=O)O)NC1=O)NC(=O)[C@H](CC(C)(C)C)NC(=O)[C@H](CC(=O)O)NC2=O` (single isomer, unassigned) [I-41, Ac-PL3-Asp-Npg-B5-Asp-3COOHF-Ala-Ala-Phe-AsnR*3-PyrS2-3Thi-BztA-Orn*3-NH2], the figure is 200 to 750 nM; as for `CC(=O)N1CCC[C@]12CC=CCCCC1(CCCC=CCCCOC(=O)N3CC[C@@]4(C3)NC(=O)[C@H](CC(C)C)NC(=O)[C@H](Cc3ccccc3)NC(=O)[C@H](C)NC(=O)[C@H](CCC(=O)N3CCC(CC3)CN(C)C(=O)CC[C@@H](C(=O)N[C@@H](C)C(N)=O)NC(=O)[C@H](Cc3csc5ccccc35)NC(=O)[C@H](Cc3ccccc3C(F)(F)F)NC4=O)NC(=O)[C@H](Cc3cccc(C(=O)O)c3)NC(=O)[C@H](CC(=O)O)NC1=O)NC(=O)[C@H](CC(C)(C)C)NC(=O)[C@H](CC(=O)O)NC2=O` (single isomer, unassigned) [I-95, Ac-PL3-Asp-Npg-B5-Asp-3COOHF-GlnR-Ala-Phe-Leu-PyrS2-2F3MeF-BztA-[4mampiperidine]GlnR-Ala-NH2], 50 to 200 nM; as for `CC(=O)N1CCC[C@]12CC=CCCCC1(CCCC=CCCCOC(=O)N3CC[C@@]4(C3)NC(=O)[C@H](CC(C)C)NC(=O)[C@H](Cc3ccccc3)NC(=O)[C@H](C)NC(=O)[C@H](CCC(=O)N3CCC(CC3)CN(C)C(=O)CC[C@@H](C(=O)N[C@@H](C)C(N)=O)NC(=O)[C@H](Cc3csc5ccccc35)NC(=O)[C@H](Cc3ccccc3C(F)(F)F)NC4=O)NC(=O)[C@H](Cc3cccc(C(=O)O)c3)NC(=O)[C@H](CC(=O)O)NC1=O)NC(=O)[C@H](CC(C)(C)C)NC(=O)[C@H](CC(=O)O)NC2=O` (single isomer, unassigned) [I-96, Ac-PL3-Asp-Npg-B5-Asp-3COOHF-GlnR-Ala-Phe-Leu-PyrS2-2F3MeF-BztA-[4mampiperidine]GlnR-Ala-NH2], 200 to 750 nM. For `CC(=O)N1CCC[C@]12CC=CCCCC1(CCCC=CCCCOC(=O)N3CC[C@@]4(C3)NC(=O)[C@H](CSc3c(F)c(F)c(c(F)c3F)-c3c(F)c(F)c(c(F)c3F)SC[C@@H](C(=O)N[C@@H](C)C(N)=O)NC(=O)[C@H](Cc3csc5ccccc35)NC(=O)[C@H](Cc3ccccc3C(F)(F)F)NC4=O)NC(=O)[C@H](Cc3ccccc3)NC(=O)[C@H](C)NC(=O)C(C)(C)NC(=O)[C@H](Cc3cccc(C(=O)O)c3)NC(=O)[C@H](CC(=O)O)NC1=O)NC(=O)[C@H](CC(C)(C)C)NC(=O)[C@H](CC(=O)O)NC2=O` (single isomer, unassigned) [I-340, Ac-PL3-Asp-Npg-B5-Asp-3COOHF-Aib-Ala-Phe-[8FBB]Cys-PyrS2-2F3MeF-BztA-Cys-Ala-NH2], the IC50 is 200 to 750 nM.

`COc1cccc(C[C@@H]2NC(=O)[C@H](C)NC(=O)C(C)(C)NC(=O)[C@H](Cc3cccc(C(=O)O)c3)NC(=O)[C@H](CC(=O)O)NC(=O)C3(CCCC=CCCCOC(=O)N4CC[C@@]5(C4)NC(=O)[C@H](CCCCNC(=O)CC[C@@H](C(=O)N[C@@H](C)C(N)=O)NC(=O)[C@H](Cc4csc6ccccc46)NC(=O)[C@H](Cc4ccsc4)NC5=O)NC2=O)CCCC=CC[C@]2(CCCN2C(C)=O)C(=O)N[C@@H](CC(=O)O)C(=O)N[C@@H](CC(C)(C)C)C(=O)N3)c1` (single isomer, unassigned) [I-582, Ac-PL3-Asp-Npg-B5-Asp-3COOHF-Aib-Ala-30MeF-Lys*3-PyrS2-3Thi-BztA-GlnR*3-Ala-NH2] yielded an IC50 below 50 nM.
